Results as given in article PMC3990705, “A p38 Substrate-Specific MK2-EGFP Translocation Assay for Identification and Validation of New p38 Inhibitors in Living Cells: A Comprising Alternative for Acquisition of Cellular p38 Inhibition Data” (PLoS ONE, 2014).

Chains of the proteins cited; added tags and fusions are not shown.
UniProt Q16539, whole entry: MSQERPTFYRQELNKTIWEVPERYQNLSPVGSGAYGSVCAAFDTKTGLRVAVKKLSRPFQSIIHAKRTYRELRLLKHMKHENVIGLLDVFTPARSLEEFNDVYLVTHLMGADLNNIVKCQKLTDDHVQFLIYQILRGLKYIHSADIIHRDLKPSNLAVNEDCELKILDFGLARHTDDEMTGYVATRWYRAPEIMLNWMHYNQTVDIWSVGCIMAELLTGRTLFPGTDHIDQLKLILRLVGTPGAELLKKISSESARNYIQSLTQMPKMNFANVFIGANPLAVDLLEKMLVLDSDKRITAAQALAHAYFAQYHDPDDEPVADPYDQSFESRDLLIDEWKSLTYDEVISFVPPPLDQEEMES

How the values were obtained:
[1] = system: TNFα release in human whole blood; assay: Whole blood assay (WBA), TNFα release after LPS stimulation; details: read-out: WBA TNFα IC50 ± SD, N = 3
p38α MAPK = p38α MAPK (Homo sapiens, UniProt Q16539); assay: Biochemical p38 MAPK activity assay (BAA), ELISA of ATF-2 phosphorylation; details: read-out: BAA p38 IC50 ± SD; inhibition of phosphorylation of ATF2, N = 3
p38 MAPK = p38 MAPK (Homo sapiens, UniProt Q16539); assay: MK2-EGFP translocation assay (High Content Analysis); assay type: cell-based; details: 15 nM compound, activated U2OS MK2-EGFP cells, N = 3

CC(C)C(C)Nc1cc(-c2[nH]c(SCCO)nc2-c2ccc(F)cc2)ccn1 (stereo not drawn)
IC50 [1]: 21 nM | IC50 (p38α MAPK): 11.8 nM | nuc/cyt ratio at 15 nM ± SD (p38 MAPK): 0,982±0,0335
